Molecular target: recombinant human galectin 9 (human, UniProt O00182-2)
Experiment: SPR

B1: recombinant human CD44 (receptor, UniProt P16070 21-220, looked up)
chain: QIDLNITCRFAGVFHVEKNGRYSISRTEAADLCKAFNSTLPTMAQMEKALSIGFETCRYGFIEGHVVIPRIHPNSICAANNTGVYILTSNTSQYDTYCFNASAPPEEDCTSVTDLPNAFDGPITITIVNRDGTRYVQKGEYRTNPEDIYPSNPTDDDVSSGSSSERSSTSGGYIFYTFSTVHPIPDEDSPWITDSTDRIP
Work on B1 yielded a Kd of 10.5 nM, a koff of 0.0015 s⁻¹ and a kon of 143000 M⁻¹ s⁻¹.
